Counter-ions that a name gives are not always drawn.
What was measured:
[1] = target: T1, α1B-adrenoceptors (Mus musculus, UniProt P97717); test: Functional bioassay, isolated mouse spleen, noradrenaline contraction; format: biochemical
T1 construct: The spleen was removed from male mice; from tissue; host or cells: isolated mouse spleen
Method: The influence on α1B-adrenoceptors was evaluated using the isolated mouse spleen. The spleen was removed from male mice right after killing the anesthetized animal by cervical dislocation. […] The initial optimal tissues tension was set at 1.0 g. Through the 100 min of equilibration tissues were stimulated with noradrenaline (0.1−10.0 μM) three times with washing out until the contractile response become constant. Two cumulative concentration-response curves to noradrenaline, at an interval of 60 min, were established on each tissue both in the presence and absence of antagonist. The incubation with antagonists went on for 30 min. The experiments were carried out in the constant presence of propranolol (1 μM) to block β-adrenoceptors, and minimize the involvement of these adrenoceptors in the response to noradrenaline.
(§1) Data are means ± S.E.M. of at least 4 separate experiments. To establish Hill slopes for the agonist concentration–response curves and calculate EC50 values, curves were fitted to all the data by non-linear regression. The EC50 value in the presence and absence of antagonists was used to ascertain the concentration ratio (CR). Schild analysis was performed.

Sequences of proteins named here, by UniProt entry; tags and fusion partners are left off.
UniProt P97717, whole entry: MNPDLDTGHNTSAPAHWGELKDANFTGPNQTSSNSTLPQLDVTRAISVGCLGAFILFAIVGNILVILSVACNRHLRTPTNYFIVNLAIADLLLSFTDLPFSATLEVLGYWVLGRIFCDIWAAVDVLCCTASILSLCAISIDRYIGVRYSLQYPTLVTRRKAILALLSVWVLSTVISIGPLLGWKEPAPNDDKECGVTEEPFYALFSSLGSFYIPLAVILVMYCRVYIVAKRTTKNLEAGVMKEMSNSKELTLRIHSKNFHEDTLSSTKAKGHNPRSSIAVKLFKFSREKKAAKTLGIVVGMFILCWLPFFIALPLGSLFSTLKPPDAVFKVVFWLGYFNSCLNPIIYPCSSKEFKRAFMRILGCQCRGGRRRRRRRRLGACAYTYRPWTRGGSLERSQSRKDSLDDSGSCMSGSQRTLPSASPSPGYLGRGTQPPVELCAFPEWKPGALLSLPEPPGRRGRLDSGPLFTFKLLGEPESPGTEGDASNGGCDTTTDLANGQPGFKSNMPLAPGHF
UniProt P23944, whole entry: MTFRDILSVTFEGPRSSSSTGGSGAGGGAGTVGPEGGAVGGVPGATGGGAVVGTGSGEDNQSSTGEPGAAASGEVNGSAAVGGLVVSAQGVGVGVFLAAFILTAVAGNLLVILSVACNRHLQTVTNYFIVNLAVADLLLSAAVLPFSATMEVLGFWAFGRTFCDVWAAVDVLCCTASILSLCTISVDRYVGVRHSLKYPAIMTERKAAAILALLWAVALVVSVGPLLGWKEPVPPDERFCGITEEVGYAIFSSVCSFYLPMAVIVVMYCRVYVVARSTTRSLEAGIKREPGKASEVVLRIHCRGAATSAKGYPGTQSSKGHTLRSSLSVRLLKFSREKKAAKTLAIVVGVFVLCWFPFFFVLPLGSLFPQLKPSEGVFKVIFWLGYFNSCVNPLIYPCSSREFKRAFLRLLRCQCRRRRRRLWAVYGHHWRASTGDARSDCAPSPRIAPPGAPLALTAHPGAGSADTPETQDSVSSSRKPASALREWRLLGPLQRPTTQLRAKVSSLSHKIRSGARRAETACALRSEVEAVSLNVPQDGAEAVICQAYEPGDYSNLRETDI

[2] = target: T2, α1A-adrenoceptors (Rattus norvegicus, UniProt P43140); test: Functional bioassay, isolated rat tail artery, noradrenaline contraction; format: biochemical
T2 construct: the middle part of the ventral caudal artery was removed; from tissue; host or cells: isolated rat tail (ventral caudal) artery rings
T2 sequence (P43140 1-466): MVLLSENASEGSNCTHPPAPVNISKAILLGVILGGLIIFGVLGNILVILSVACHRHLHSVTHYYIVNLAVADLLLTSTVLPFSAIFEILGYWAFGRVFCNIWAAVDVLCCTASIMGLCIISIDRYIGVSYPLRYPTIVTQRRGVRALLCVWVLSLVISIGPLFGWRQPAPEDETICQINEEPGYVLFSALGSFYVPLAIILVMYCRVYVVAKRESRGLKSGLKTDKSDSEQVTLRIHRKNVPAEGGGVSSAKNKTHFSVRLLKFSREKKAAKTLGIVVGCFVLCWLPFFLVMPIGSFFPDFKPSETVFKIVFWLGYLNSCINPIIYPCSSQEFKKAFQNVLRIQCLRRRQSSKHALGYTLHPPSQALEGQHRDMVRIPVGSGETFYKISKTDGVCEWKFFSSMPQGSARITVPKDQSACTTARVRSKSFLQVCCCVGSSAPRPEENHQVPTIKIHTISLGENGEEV
Method: The isolated artery, cut into ~4 mm long rings, was then horizontally put up between two stainless steel hooks (diameter 0.15 mm). One hook was fastened to the bottom of the chamber and the other to an isometric FDT10-A force displacement transducer (DMT Model 750TOBS, Denmark), linked with Powerlab 4/26 analyzer (ADInstruments), and processed by LabChart 7 software. […] The initial optimal tissues tension was set at 0.75 g. Chloroethylclonidine (3 μM) as the preferential α1B-adrenoreceptor alkylating agent was used during incubation and after 30 min it was completely washed off. Through 100 min of equilibration tissues were stimulated with noradrenaline (1 μM) four times with washing out until the contractile response become constant. Two cumulative concentration-response curves to noradrenaline, at an interval of 60 min, were established on each arterial ring both in the presence and absence of antagonist. The incubation with antagonists went on for 30 min. The experiments were carried out in the constant presence of yohimbine (0.1 μM) and propranolol (1 μM) to block α2- and β-adrenoceptors, respectively in order to minimize the involvement of these adrenoceptors in the response to noradrenaline.
Data are means ± S.E.M. of at least 4 separate experiments. […]

[3] = system: normal ECG in rats; conditions: rat, in vivo, ip
[4] = target: α1D-adrenoreceptors (Rattus norvegicus, UniProt P23944); test: Functional bioassay, isolated rat aorta, noradrenaline contraction; format: biochemical; parameters: had aorta removed, denuded of endothelium and incubated in the Krebs-Henseleit solution; from tissue; host or cells: isolated rat aorta rings
Method: Finally, the influence on α1D-adrenoreceptors was investigated using the isolated rat aorta. […] The aorta rings were maintained at optimal tension of 2.0 g. During 3 h of equilibration tissues were stimulated with noradrenaline three times (0.3 μM). Two cumulative concentration-response curves to noradrenaline, at an interval of 60 min, were established on each tissue both in the presence and absence of antagonist. The incubation with antagonists went on for 30 min. The experiments were carried out in the constant presence of yohimbine (0.1 μM) and propranolol (1 μM) to block α2- and β-adrenoceptors, respectively.
as §1

`COc1ccccc1N1CCN(CCCOc2cc(C)ccc2C)CC1` [HBK-17, 1N-[3-(2,5-dimethylphenoxy)propyl]-4N-(2-methoxyphenyl)piperazine hydrochloride] was tested, and the Kb [1] was 11.5 nM, the “Schild slope ± S.E.M., α1B” value [1] was 7.94 ± 0.06 (0.91 ± 0.03) and the Kb [2] was 7.08 nM. For the same compound, the “Schild slope ± S.E.M., α1A” value [2] was 8.15 ± 0.08 (0.91 ± 0.05), the “influence on ECG parameters (PQ interval, QRS complex, QTc interval)” value [3] was “without affecting PQ interval, QRS complex or QTc interval” and the “reduction of heart rate” value [3] was 9−12%. The Kb [4] was 1.48 nM and the “Schild slope ± S.E.M., α1D” value [4] was 8.83 ± 0.09 (1.01 ± 0.07).
